# Earlier results as cited in US20250101062A1, “ANTIMICROBIAL PEPTIDES” (Board of Regents of the University of Nebraska, priority 2023, published 2025).
# System: E. coli
# Conditions: data from the antimicrobial peptide database; cited from earlier work
sequence,measurement,value
ACDTATCVTHRLAGLLSRSGGVVKNNFVPTNVGSKAF [Calcitonin gene-related peptide],MIC against E. coli,2.1 µg/mL
